Experimental findings from ChEMBL document CHEMBL1125058 (J Med Chem, 1990) are described below.

Protein sequences, listed by entry. Tags and fused reporters are not part of them. Lines headed by an entry give the natural chain unless they say otherwise; changes in a name come on top.
UniProt P11511: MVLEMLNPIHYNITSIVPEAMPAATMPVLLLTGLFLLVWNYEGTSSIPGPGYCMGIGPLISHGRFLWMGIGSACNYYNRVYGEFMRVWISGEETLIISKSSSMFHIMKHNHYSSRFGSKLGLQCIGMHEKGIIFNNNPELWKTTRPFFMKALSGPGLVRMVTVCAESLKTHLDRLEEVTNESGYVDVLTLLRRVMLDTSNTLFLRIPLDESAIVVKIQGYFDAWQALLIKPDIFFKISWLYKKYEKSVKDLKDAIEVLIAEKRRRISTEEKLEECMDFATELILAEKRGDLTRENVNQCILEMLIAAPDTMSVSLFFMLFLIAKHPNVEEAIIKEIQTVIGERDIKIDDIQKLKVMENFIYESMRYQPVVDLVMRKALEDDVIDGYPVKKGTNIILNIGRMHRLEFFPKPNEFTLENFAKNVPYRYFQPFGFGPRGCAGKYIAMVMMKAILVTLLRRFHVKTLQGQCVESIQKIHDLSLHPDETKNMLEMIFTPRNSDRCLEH

The assay deals with Aromatase (Homo sapiens, UniProt P11511).
For `CCCC[C@]1(c2ccncc2)CCC(=O)NC1=O`, it took 4 µM to reach half-maximal inhibition (IC50).
In the case of `CCCCCCCCCCN1C(=O)CC[C@](CC)(c2ccncc2)C1=O` it was 10 µM; in that of `CCC[C@]1(c2ccncc2)CCC(=O)NC1=O`, 6 µM; in that of `CCCCN1C(=O)CC[C@](CC)(c2ccncc2)C1=O`, 40 µM.
